The target in experiment [1] is T1, MDM2 SWIB (Homo sapiens, UniProt Q00987).
T1 construct: Q00987; MDM2; SWIB; 17; 125; pETM33; Genescript; His-GST (cleaved yes); made in house; host or cells: bacteria (E. coli BL21(DE3) gold is named only for the phage-selection preparations)
Briefly: FP competition, MDM2 SWIB. As to conditions: Fig 3C; FP competition with FITC-p53 probe; triplicates. In kind it is binding.

The target of experiment [2] is T1, MDM2 SWIB. Put plainly: FP saturation (direct binding of FITC probe), MDM2 SWIB. Conditions: Fig 3C; direct binding of FITC-labeled probe.
For experiment [3], the system named is immobilized GST-tagged bait protein domains. Briefly: ProP-PD phage selections (HD2 P8, sublibraries, HD2 P3, HD1 P8) with NGS and confidence level. On the set-up: species or system human. Conditions: bait MDM2_p53-binding-domain (Q00987 17-125), HD2 library.

Broadly, the Ki is a dissociation constant, usually derived from enzyme kinetics or from competition with a known ligand. The low end stands for tighter binding, the high end for weaker binding. Consider `CC(C)C[C@H](NC(=O)[C@H](CC(=O)O)NC(=O)[C@H](CO)NC(=O)[C@H](Cc1ccccc1)NC(=O)[C@@H](NC(=O)[C@H](CCC(=O)O)NC(=O)[C@@H](N)CCC(N)=O)[C@@H](C)O)C(=O)N[C@@H](Cc1c[nH]c2ccccc12)C(=O)N[C@@H](CCCCN)C(=O)N[C@@H](CC(C)C)C(=O)N[C@@H](CC(C)C)C(=O)N1CCC[C@H]1C(=O)N[C@@H](CCC(=O)O)C(=O)N[C@@H](CC(N)=O)C(=O)N[C@@H](CC(N)=O)C(=O)N[C@H](C(=O)O)C(C)C` [P53], for which the Ki in experiment [1] was found to be 361 nM. In general, Kd refers to the equilibrium constant for the complex coming apart. High values mean a looser complex, low ones a tighter complex. In turn, `CC(C)C[C@H](NC(=O)[C@H](CC(C)C)NC(=O)[C@H](CCCCN)NC(=O)[C@H](Cc1c[nH]c2ccccc12)NC(=O)[C@H](CC(C)C)NC(=O)[C@H](CC(=O)O)NC(=O)[C@H](CO)NC(=O)[C@H](Cc1ccccc1)NC(=O)[C@@H](NC(=O)[C@H](CCC(=O)O)NC(=O)[C@H](CCC(N)=O)NC(=O)[C@H](CO)NC(=S)Nc1ccc2c(c1)C(=O)OC21c2ccc(O)cc2Oc2cc(O)ccc21)[C@@H](C)O)C(=O)O` [p53_FITC] displayed a Kd in experiment [2] of 51 ± 15 nM.

As to QETFSDLWKLLPENNV, the motif_found entry in experiment [3] (benchmark motif instance recovered in the ProP-PD selection (TRUE/FALSE)) is on record as “TRUE”. In addition, the best_confidence in experiment [3] (confidence level (1-4) of best matching peptide) amounted to 4. Further, in experiment [3] (specificity score of best matching peptide), the best_specificity was found to be 1.

Source of the values: PMC8769072, “Proteome‐scale mapping of binding sites in the unstructured regions of the human proteome” (Molecular Systems Biology, 2022).
